Source: patent publication US20240307551A1, “ANTIBODY-DRUG CONJUGATE AND APPLICATION THEREOF” (JIANGSU ALPHAMAB BIOPHARMACEUTICALS CO., LTD., priority 2021, published 2024)

Legend:
NCI-N87 cells [1] = assay: Binding to NCI-N87 tumor cells by FACS; set-up: species or system human
Procedure: The specific steps of the assay: • (1) Drugs were prepared with 1% BSA/PBS. The highest concentration prepared was 120 μg/mL (the working concentration was 60 μg/mL) and was 3-fold diluted to obtain a total of 10 concentrations. • (2) NCI-N87 cells (purchased from Chinese Academy of Sciences, Shanghai) were collected, centrifuged, counted, blocked with 5% BSA/PBS for 15 min, and added to 1.5-mL centrifuge tubes at 2×10^5 cells/50 μL/tube. 50 μL of antibody drug was added to each of the tubes, and the tubes were left at 4° C. for 1 h. • (3) Cells were washed twice by centrifugation at 2000 rpm for 5 min. In each wash, 1000 μL of 1% BSA/PBS was added. After the last wash, the liquid was pipetted off, and 90 μL of APC-IgG diluted in 1% BSA/PBS at 1:100 was added to each well. The tubes were left in the dark at 4° C. for 30 min. • (4) Cells were washed twice by centrifugation at 2000 rpm for 5 min. In each wash, 1000 μL of 1% BSA/PBS was added. After the last wash, the liquid was pipetted off; 300 μL of 1% BSA/PBS was added to each of the tubes, and FACS assays were performed in the dark.

BT474 cells = assay: BT474 tumor cell killing assay (CCK-8); assay type: cell-based; settings: 3 days of treatment
Procedure: (§1) The plate was gently tapped to mix the contents well and left at 37° C. for around 2 h. • (6) With 650 nm as a reference wavelength, the absorbance values at 450 nm were recorded.

[2] = test system: HER2 expression negative human gastric cancer PDX tumor; assay: HER2 negative gastric cancer PDX subcutaneous xenograft model (case 111); assay type: in vivo, NOD/SCID mice
[3] = test system: human HER2 weakly positive (2+) gastric cancer PDX; assay: HER2 weakly positive (2+) gastric cancer PDX subcutaneous xenograft model (case 168); assay type: in vivo, NOD/SCID mice; settings: Day 27, 10 mg/kg
[4] = test system: SK-BR-3+MDA-MB-468 (1:1) mixed cell system; assay: Bystander killing experiment, mixed cell system, total cell count; assay type: cell-based; settings: 72 h
Procedure: (§2) After 3 days of treatment, the cells in all sample wells were counted, the mixed cell system was stained with the APC anti-CD340 Antibody fluorescent antibody, and flow cytometry assays were performed. In T75 culture flasks, SK-BR-3 and MDA-MB-468 cells were in the logarithmic growth phase. The media were discarded. After two washes with PBS, the liquid was pipetted off; 2 mL of trypsin was added for digestion, and the flasks were left in a 37° C. incubator for 4 min. The cell digests were transferred to 15-mL centrifuge tubes, and 8 mL of growth medium was added to stop the digestion. The cells were pipetted until single-cell suspensions were formed, and the suspensions were centrifuged at 1000 rpm for 5 min. The supernatants were discarded, and 3 mL of medium (RPMI-1640+1% FBS) was added to resuspend the cells. 20 μL of cell suspension was taken and mixed with 20 μL of 0.2% trypan blue. Count: Mono-culture: The densities of the two types of cells were adjusted to 1×10^5 cells/mL using a medium (RPMI-1640+1% FBS); each of the two types of cells was plated onto a 96-well plate at 100 μL/well, with each well containing 1×10^4 cells; the plates were incubated overnight in a 37° C., 5% CO2 incubator. Co-culture: The densities of the two types of cells were adjusted to 2×10^5 cells/mL using a medium (RPMI-1640+1% FBS); to each well were added 50 μL of SK-BR-3 cells and 50 μL of MDA-MB-468 cells; each well contained a total of 2×10^4 cells; the plate was incubated overnight in a 37° C., 5% CO2 incubator. Antibody drug preparation: The test samples were 5-fold diluted with an RPMI-1640 medium containing 1% FBS from the highest working concentration of 50 nM to obtain a total of 4 concentrations. A control group was set up at the same time, i.e., a drug-free group (negative control). The diluted test samples were added at 100 μL/well, and 100 μL of RPMI-1640+1% FBS medium was directly added to the negative control. The plate was incubated at 37° C. with 5% CO2 for 72 h. The supernatants in the 96-well plate were pipetted off. After one wash with 200 μL of 1×PBS, 20 μL of trypsin was added to each well for digestion, and the plate was left in a 37° C. incubator for 4 min. 100 μL of medium (RPMI-1640+10% FBS) was added to stop the digestion. The cells were pipetted until single-cell suspensions were formed, and the plate was centrifuged at 1000 rpm for 5 min. The supernatants were discarded, and 40 μL of 1×PBS was added to each well to resuspend cells. 20 μL of cell suspension was taken and mixed with 20 μL of 0.2% trypan blue, and cells were counted. […]

[5] = test system: MDA-MB-468 (no HER2 expression) single cell system; assay: Bystander killing experiment, MDA-MB-468 single cell system; assay type: cell-based; settings: 72 h
Procedure: as §2

NCI-N87 cells [6] = assay: NCI-N87 tumor cell killing assay (CCK-8); assay type: cell-based, human; settings: 3 days of treatment
Procedure: as §1

[7] = test system: MDA-MB-468 cells in SK-BR-3+MDA-MB-468 (1:1) mixed system; assay: Bystander killing experiment, MDA-MB-468 cells in the mixed system; assay type: cell-based; settings: 72 h
BxPC-3 tumor model = assay: Tumor growth inhibition in BxPC-3 nude mouse model; assay type: in vivo, nude mice; settings: 10 mg/kg, intraperitoneal, 24 days
Procedure: Group administration regimen: BxPC-3 cells were injected subcutaneously into the axilla of nude mice to establish a model, wherein the concentration for inoculation was 1×10^6/0.1 mL/mouse.
When the average tumor size reached about 190 mm^3, the mice were randomly divided into groups of 4 (male) by tumor size and body weight. The day when random grouping was performed was taken as day 0. The test drugs were administered intraperitoneally on day 0, and administered intraperitoneally at the dose once every 3 days in the following days. A total of 2 administrations were performed. The animals not selected were euthanized with CO2.
The test animals were divided into groups A, B and C.
According to the above regimen, the test mice of groups A, B and C were put on three test substances for 24 days (2 animals from group A (PBS) were euthanized after 20 days of test substance administration because the tumors grew too big). Tumor inhibition curves of the three test substances against the BxPC-3 tumor model were obtained.

[8] = test system: SK-BR-3 (high HER2 expression) single cell system; assay: Bystander killing experiment, SK-BR-3 single cell system; assay type: cell-based; settings: 72 h
Procedure: as §2

[9] = FACS mean fluorescence intensity (MFI) binding curve

Substance: Antibody A-ADC2
- EC50 (NCI-N87 cells [1]; FACS binding, 4° C., 1 h): 0.9369 µg/mL
- Peak value (NCI-N87 cells [1]; [9]): 30780
- Valley value (NCI-N87 cells [1]; [9]): 660.8
- inhibition rate against BT474 cells (BT474 cells): 36%

Substance: DS-8201 [reference compound]
- T/C (%) ([2]; Day 17, 10 mg/kg): 24.81%
- TGI (%) ([2]; Day 17, 10 mg/kg): 75.19%
- Tumor volume (mm^3) (x ± S) ([2]; Day 17 after the first administration, 10 mg/kg once, tail vein, listed as ENHERTU, 10 mg/kg): 174.06±71.09 mm^3
- T/C (%) [3]: 13.92%
- TGI (%) [3]: 86.08%
- CountStar cell count ([4]; 0.4 nM): 27860
- CountStar cell count ([4]; 2 nM): 23680
- CountStar cell count ([4]; 10 nM): 16760
- CountStar cell count ([4]; 50 nM): 12000
- CountStar cell count ([5]; 0.4 nM): 10320
- CountStar cell count ([5]; 2 nM): 10800
- CountStar cell count ([5]; 10 nM): 11480
- CountStar cell count ([5]; 50 nM): 8800
- inhibition rate against NCI-N87 (NCI-N87 cells [6]): 60%
- inhibition rate against BT474 cells (BT474 cells): 23%
- proportion of HER2 negative (MDA-MB-468) cells in the mixed cell group ([7]; 0.4 nM): 55.33%
- proportion of HER2 negative (MDA-MB-468) cells in the mixed cell group ([7]; 2 nM): 64.00%
- proportion of HER2 negative (MDA-MB-468) cells in the mixed cell group ([7]; 10 nM): 56.20%
- proportion of HER2 negative (MDA-MB-468) cells in the mixed cell group ([7]; 50 nM): 57.85%
- tumor inhibition (tumor inhibition curves) (BxPC-3 tumor model): tumor inhibition to a great extent
- CountStar cell count ([8]; 0.4 nM): 5120
- CountStar cell count ([8]; 2 nM): 3572
- CountStar cell count ([8]; 10 nM): 2808
- CountStar cell count ([8]; 50 nM): 2012
